{"source": "ChEMBL document CHEMBL3244020", "about": "“Trichloroacetamidines, a new class of positive inotropic agents” (J Med Chem, 1978)", "species_on_record": "Felis catus", "assay": "Positive inotropic activity in cat heart papillary muscle assessed as increase in contractile force at 10 ug/mL measured for 5 to 30 mins", "type": "functional", "settings": "Muscle tissue", "outline": "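Right-ventricular cat papillary muscles in Krebs–Henseleit at 37 °C, field-stimulated at 1/s (4–10 ms, 6–10 V). Muscles equilibrated about 90 min, until force fell to 25–30% of original. Compound added and force recorded at 5, 10, 20 and 30 min, followed by ouabain 0.5 μg/mL. Positives were retested on three more preparations at ≥3 concentrations. Scored as mg increase in contractile force.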", "data": [{"smiles": "C/N=C(\\N(C)C)C(Cl)(Cl)Cl", "values": [{"measurement": "Activity", "value": 201, "unit": "mg"}]}]}
